Target: T1, hPPARα (Homo sapiens, UniProt Q07869)
T1 construct: expressed in transfected cells; host or cells: CV-1 cells
T1 sequence (Q07869 1-468): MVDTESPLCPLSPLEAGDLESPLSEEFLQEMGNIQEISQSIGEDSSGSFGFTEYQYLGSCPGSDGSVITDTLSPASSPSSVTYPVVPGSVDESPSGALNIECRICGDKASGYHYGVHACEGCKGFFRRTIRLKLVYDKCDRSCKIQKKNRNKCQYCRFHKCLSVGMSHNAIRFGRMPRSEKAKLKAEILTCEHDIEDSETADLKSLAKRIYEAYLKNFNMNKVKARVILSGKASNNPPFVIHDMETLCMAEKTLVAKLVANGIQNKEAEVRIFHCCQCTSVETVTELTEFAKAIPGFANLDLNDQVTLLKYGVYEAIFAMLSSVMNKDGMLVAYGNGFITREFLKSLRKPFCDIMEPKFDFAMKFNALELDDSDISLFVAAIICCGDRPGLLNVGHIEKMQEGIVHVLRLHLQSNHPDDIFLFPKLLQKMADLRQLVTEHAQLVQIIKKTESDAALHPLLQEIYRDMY
Assay: hPPARα transactivation in cell-based assay (CV-1 cells, luciferase)
Conditions: CV-1 cells transfected with hPPARα
Procedure: Cell based transcription assay was employed to identify hPPAR γ/α agonists. CV-1 cells were maintained in MEM (minimum essential medium) containing 10% FBS (fetal bovine serum). Cells were seeded at a density of 80,000 cells/well in a 24-well plate one day prior to transfection. CV-1 cells were transiently transfected with hPPAR γ/α using Lipofectamine 2000. […] Receptor activation by ligands leads to activation of luciferase expression, which was measured after 15-16 h incubation. The cells were washed with PBS, lysed, and luciferase activity measured in a microplate luminometer. […] Both compounds were synthesized in-house. Maximum activation with the reference agonists was defined as 100%. Receptor activation by test compounds is presented as percentage of maximum activation caused by the respective reference agonists in Table 4(a), Table 4(b) and Table 4(c).

## Cc1cccc(Nc2cc(Cl)nc(SCC(=O)O)n2)c1C [Wy-14,643, Wy-14643, reference compound]
  PPARα (Fold activation at 20 μM): 3.2 fold
